The test relates to Plasmodium falciparum. The test can be described thus: Ratio of kinact to Ki for schizont stage Plasmodium falciparum 20S proteasome beta5 subunit.

For the molecule `CCCCCC(=O)N[C@H](C(=O)N[C@@H](CCCC)C(=O)N[C@@H](CC(C)C)C(=O)[C@@]1(C)CO1)C(C)C`, the Ratio was determined as 768 M⁻¹ s⁻¹.
Turning to `CCCCCC(=O)N[C@@H](C(=O)N[C@@H](CCCC)C(=O)N[C@@H](CC(C)C)C(=O)[C@@]1(C)CO1)C(C)C`, the Ratio was determined as 158 M⁻¹ s⁻¹.

Values taken from ChEMBL document CHEMBL4038319, “Development of a Potent Inhibitor of the Plasmodium Proteasome with Reduced Mammalian Toxicity” (J Med Chem, 2017).
